This note sets out measurements from paper PMC6530635, “A Novel Single-Site Mutation in the Catalytic Domain of Protoporphyrinogen Oxidase IX (PPO) Confers Resistance to PPO-Inhibiting Herbicides” (Frontiers in Plant Science, 2019).

Assay type in all cases: biochemical
In assay [1] the test system is recombinant Amaranthus tuberculatus PPO2 G399A.
Assay [2] deals with recombinant Amaranthus tuberculatus PPO2 ΔG210.
Assay [3] has as its system recombinant Amaranthus tuberculatus PPO2 R128L.

For `CS(=O)(=O)NC(=O)c1cc(Oc2ccc(C(F)(F)F)cc2Cl)ccc1[N+](=O)[O-]` [Fomesafen], the “Resistance factor G399A (IC50 mutant / IC50 sensitive PPO2)” value in assay [1] is given as over 7576. The “Resistance factor ΔG210 (IC50 mutant / IC50 sensitive PPO2)” value in assay [2] came out at 12315. For the same compound, in assay [3], the “Resistance factor R128L (IC50 mutant / IC50 sensitive PPO2)” value worked out at 1479.

In the case of `CC(C)N(C)S(=O)(=O)NC(=O)c1cc(-n2c(=O)cc(C(F)(F)F)n(C)c2=O)c(F)cc1Cl` [Saflufenacil], the “Resistance factor G399A (IC50 mutant / IC50 sensitive PPO2)” value in assay [1] is 570. Moreover, the “Resistance factor ΔG210 (IC50 mutant / IC50 sensitive PPO2)” value in assay [2] was 1455. For the same compound, the “Resistance factor R128L (IC50 mutant / IC50 sensitive PPO2)” value in assay [3] is given as 202.
